Measured values reported in patent US10202345B2, “Substituted azaspiro(4.5)decane derivatives” (priority 2014, dated 2019).

By UniProt entry, the sequences of proteins in these tests, tags left out. Where a name states a change or a piece, a line headed by the entry shows the natural chain unless it says otherwise.
UniProt P35372, whole entry, looked up: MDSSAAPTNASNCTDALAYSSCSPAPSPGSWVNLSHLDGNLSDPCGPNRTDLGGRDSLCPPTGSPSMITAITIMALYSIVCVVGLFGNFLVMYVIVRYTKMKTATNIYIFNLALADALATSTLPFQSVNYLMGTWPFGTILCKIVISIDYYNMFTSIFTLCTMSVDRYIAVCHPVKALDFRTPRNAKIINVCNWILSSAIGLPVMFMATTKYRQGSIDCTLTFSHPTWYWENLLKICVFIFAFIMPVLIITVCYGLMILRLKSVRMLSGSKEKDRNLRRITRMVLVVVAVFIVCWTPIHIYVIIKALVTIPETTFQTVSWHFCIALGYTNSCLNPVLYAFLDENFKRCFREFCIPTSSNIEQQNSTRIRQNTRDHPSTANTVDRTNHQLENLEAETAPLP
UniProt P41146: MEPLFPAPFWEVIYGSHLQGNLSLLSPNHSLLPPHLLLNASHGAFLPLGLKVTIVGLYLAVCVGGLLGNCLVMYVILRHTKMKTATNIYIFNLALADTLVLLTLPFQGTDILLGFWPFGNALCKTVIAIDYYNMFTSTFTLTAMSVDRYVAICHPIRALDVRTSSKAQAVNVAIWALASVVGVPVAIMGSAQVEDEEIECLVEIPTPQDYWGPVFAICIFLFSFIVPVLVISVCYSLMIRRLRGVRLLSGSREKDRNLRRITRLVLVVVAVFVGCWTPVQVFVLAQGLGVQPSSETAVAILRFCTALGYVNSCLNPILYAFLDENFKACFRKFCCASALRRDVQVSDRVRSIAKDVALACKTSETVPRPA

Columns and labels:
human μ opiate receptor = human μ opiate receptor (Homo sapiens, UniProt P35372); assay: μ opiate receptor binding assay with [3H]-naloxone (WGA-SPA beads); conditions: for Ki: read-out: Ki (μ) mean [μm], mean; for % inhibition (μ) [1 μM]: test concentration 1 μM
ORL1 receptor = ORL1 receptor (Homo sapiens, UniProt P41146); assay: ORL1 receptor binding assay with 3H-nociceptin/orphanin FQ (WGA-SPA beads); conditions: for Ki: read-out: Ki (ORL1) mean, mean; for % inhibition (ORL1) [1 μM]: test concentration 1 μM

Compound | Ki (human μ opiate receptor) | % inhibition (μ) [1 μM] (human μ opiate receptor) | Ki (ORL1 receptor) | % inhibition (ORL1) [1 μM] (ORL1 receptor)
COCC1(C(=O)N2CCC3(CCC(c4ccccc4)(N(C)C)CC3)C2)CC1 (stereo not drawn) | 0.045 µM | 93.5% | 0.105 µM | 58%
CN(C)C1(c2cccs2)CCC2(CCN(C(=O)C3CC3)C2)CC1 (stereo not drawn) | 0.0115 µM | 80.5% | 0.085 µM | 48%
CN(C)C1(c2cccs2)CCC2(CCNC2=O)CC1 (stereo not drawn) | 0.895 µM | 28% |  | 19%
CN(C)C1(C2CCCC2)CCC2(CCN(C(=O)C3CC3)C2)CC1 (stereo not drawn) | 0.052 µM | 86.5% | 0.185 µM | 45%
CN(C)C1(c2cccs2)CCC2(CCN(C(=O)CCC(C)(C)O)C2)CC1 (stereo not drawn) | 0.00305 µM | 99.5% | 0.0165 µM | 89.5%
CN(C)C1(c2cccs2)CCC2(CCN(CCC3(O)CC3)C2)CC1 (stereo not drawn) | 0.0025 µM | 98.5% | 0.00165 µM | 97.5%
CN(C)C1(C2CCCC2)CCC2(CCN(CC3CCC3)C2)CC1 (stereo not drawn) | 0.00465 µM | 99.5% | 0.00435 µM | 94.5%
COCCN1CCC2(CCC(c3ccc(C)s3)(N(C)C)CC2)C1 (stereo not drawn) | 0.078 µM | 83.5% | 0.064 µM | 64.5%
COC(C)(C)C(=O)N1CCC2(CCC(c3cccs3)(N(C)C)CC2)C1 (stereo not drawn) | 0.0365 µM | 90.5% | 0.0825 µM | 76%
Cc1ccc(C2(N(C)C)CCC3(CCNC3=O)CC2)s1 (stereo not drawn) | 4.04 µM | 32% |  | 16.5%
CNC1(c2cccs2)CCC2(CCN(C(=O)CC3CCC3)C2)CC1 (stereo not drawn) | 0.0024 µM | 102.5% | 0.0055 µM | 96%
Cc1ccc(C2(N(C)C)CCC3(CCN(C(=O)C(C)C)C3)CC2)s1 (stereo not drawn) | 0.045 µM | 86% | 0.15 µM | 26%
CN(C)C1(c2ccccc2)CCC2(CCN(CCC(C)(C)C#N)C2)CC1 (stereo not drawn) | 0.002 µM | 99% | 0.0117 µM | 88%
CN(C)C1(C2CCCC2)CCC2(CCN(CC3CCOCC3)C2)CC1 (stereo not drawn) | 0.006 µM | 95.5% | 0.029 µM | 71%
CN(C)C1(c2ccccc2)CCC2(CCN(CCC(C)(C)O)C2)CC1 (stereo not drawn) | 0.00745 µM | 95.5% | 0.00705 µM | 91%
CN(C)C1(Cc2ccccc2)CCC2(CCN(CC3CCCC3)C2)CC1 (stereo not drawn) | 0.0079 µM | 100.5% | 0.12 µM | 74.33%
COC(C)(C)CN1CC2(CCC(c3ccccc3)(N(C)C)CC2)CC1=O (stereo not drawn) | 0.00285 µM | 99% | 0.00175 µM | 95.5%
CN(C)C1(c2cccs2)CCC2(CCN(C(=O)CC3CC3)C2)CC1 (stereo not drawn) |  | 99.5% |  | 94%
CCC(=O)N1CCC2(CCC(c3ccc(C)s3)(N(C)C)CC2)C1 (stereo not drawn) | 0.125 µM | 80.5% | 0.15 µM | 34.5%
CN(C)C1(C2CCCC2)CCC2(CCN(CCC(C)(C)C#N)C2)CC1 (stereo not drawn) | 0.00465 µM | 97.5% | 0.084 µM | 63.5%
CN(C)C1(c2ccccc2)CCC2(CCN(C(=O)CC3CCOCC3)C2)CC1 (stereo not drawn) | 0.0019 µM | 95% | 0.01 µM | 92%
CN(C)C1(c2ccccc2)CCC2(CCN(C(=O)C(C)(C)O)C2)CC1 (stereo not drawn) | 0.082 µM | 79% | 0.23 µM | 46%
CCCCN1CC2(CCC(c3ccccc3)(N(C)C)CC2)CC1=O (stereo not drawn) | 0.003 µM | 97% | 0.0022 µM | 93.5%
CN(C)C1(c2cccs2)CCC2(CCN(CC3(O)CCC3)C2)CC1 (stereo not drawn) | 0.00475 µM | 99.5% | 0.00417 µM | 94.5%
8-Butyl-8-dimethylamino-8-phenyl-3-azaspiro[4.5]decan-4-one |  | 0% |  | 10%
COC1(C(=O)N2CCC3(CCC(c4ccccc4)(N(C)C)CC3)C2)CCC1 (stereo not drawn) | 0.0195 µM | 96% | 0.0545 µM | 66.5%
CN(C)C1(c2ccccc2)CCC2(CC1)CC(=O)N(CCC1COC1)C2 (stereo not drawn) | 4380 µM | 58.5% | 0.26 µM | 37.5%
CN(C)C1(c2ccccc2)CCC2(CCN(C(=O)CC3CCOC3)C2)CC1 (stereo not drawn) | 0.0026 µM | 98% | 0.0026 µM | 91.5%

Compound | Ki (human μ opiate receptor) | % inhibition (μ) [1 μM] (human μ opiate receptor) | Ki (ORL1 receptor) | % inhibition (ORL1) [1 μM] (ORL1 receptor)
CN(C)C1(C2CCCC2)CCC2(CC1)CC(=O)N(CCC1(C#N)CCC1)C2 (stereo not drawn) | 0.00565 µM | 97.33% | 0.064 µM | 70.5%
CN(C)C1(c2cccs2)CCC2(CCN(CC3(O)CC3)C2)CC1 (stereo not drawn) | 0.0108 µM | 94.5% | 0.023 µM | 80%
CCCCC1(N(C)C)CCC2(CCN(C(=O)CC3CCC3)C2)CC1 (stereo not drawn) | 0.0135 µM | 99% | 0.043 µM | 77%
COC1(C(=O)N2CCC3(CCC(c4ccccc4)(N(C)C)CC3)C2)CC1 (stereo not drawn) | 0.0655 µM | 90.5% | 0.15 µM | 48.5%
CC(C)CCN1CCC2(CCC(C3CCCC3)(N(C)C)CC2)C1 (stereo not drawn) | 0.00145 µM | 100% | 0.00633 µM | 91%
COCC1(C(=O)N2CCC3(CCC(c4ccc(F)s4)(N(C)C)CC3)C2)CC1 (stereo not drawn) | 0.0225 µM | 93% | 0.169 µM | 
CN(C)C1(c2ccccc2)CCC2(CCNC2)CC1 (stereo not drawn) | 0.215 µM | 65.5% | 0.057 µM | 62.5%
COC(C)CC(=O)N1CCC2(CCC(c3ccccc3)(N(C)C)CC2)C1 (stereo not drawn) | 0.0024 µM | 99% | 0.00325 µM | 96%
CN(C)C1(c2ccccc2)CCC2(CCN(C(=O)C3(O)CCC3)C2)CC1 (stereo not drawn) | 0.0134 µM | 95.5% | 0.0215 µM | 81%
COCC(C)(C)C(=O)N1CCC2(CCC(c3ccc(Cl)s3)(N(C)C)CC2)C1 (stereo not drawn) | 0.0016 µM | 99% | 0.098 µM | 55%
CN(C)C1(c2cccs2)CCC2(CCN(C(=O)C3COC3)C2)CC1 (stereo not drawn) | 0.037 µM | 92% | 0.0715 µM | 64%
CN(C)C1(c2ccccc2)CCC2(CCN(C(=O)C3COC3)C2)CC1 (stereo not drawn) | 0.036 µM | 93.5% | 0.0425 µM | 77.5%
CN(C)C1(c2ccccc2)CCC2(CCN(CC3(O)CC3)C2)CC1 (stereo not drawn) | 0.0255 µM | 92% | 0.035 µM | 79%
CCCCN1CCC2(CCC(Cc3ccccc3)(N(C)C)CC2)C1 (stereo not drawn) | 0.0045 µM | 7.4% | 0.17 µM | 92.5%
COCC(C)(C)C(=O)N1CCC2(CCC(c3cccs3)(N(C)C)CC2)C1 (stereo not drawn) | 0.00165 µM | 99% | 0.00945 µM | 95.5%
CC(C)CN1CC2(CCC(c3cccs3)(N(C)C)CC2)CC1=O (stereo not drawn) | 0.00405 µM | 99.5% | 0.0065 µM | 90%
COC(C)(C)CN1CCC2(CCC(C3CCCC3)(N(C)C)CC2)C1 (stereo not drawn) | 0.00305 µM | 98% | 0.0205 µM | 85%
CN(C)C1(c2ccccc2)CCC2(CCN(CCC3CC3)C2)CC1 (stereo not drawn) | 0.00195 µM | 98% | 0.0015 µM | 93%
CCCCN1CCC2(CCC(c3cccs3)(N(C)C)CC2)C1=O (stereo not drawn) | 0.17 µM | 65% | 0.6 µM | 28%
CCCC(=O)N1CCC2(CCC(CC3CCCCC3)(N(C)C)CC2)C1 (stereo not drawn) | 0.0265 µM | 92% | 24100 µM | 12%
CN(C)C1(c2cccs2)CCC2(CCN(C(=O)C3(C#N)CC3)C2)CC1 (stereo not drawn) | 0.0535 µM | 93.5% | 0.155 µM | 52.67%
CN(C)C1(C2CCCC2)CCC2(CC1)CC(=O)N(CCC1(C#N)CC1)C2 (stereo not drawn) | 0.066 µM | 95% | 0.115 µM | 59.5%
CN(C)C1(c2ccccc2)CCC2(CCN(C(=O)C3(C#N)CC3)C2)CC1 (stereo not drawn) | 0.084 µM | 87% | 0.102 µM | 48.5%
COCC1(C(=O)N2CCC3(CCC(c4ccc(C)s4)(N(C)C)CC3)C2)CCC1 (stereo not drawn) | 0.00635 µM | 96.5% | 0.114 µM | 42%
CN(C)C1(c2ccccc2)CCC2(CCN(CC3(C#N)CC3)C2)CC1 (stereo not drawn) | 0.031 µM | 93.5% | 0.047 µM | 82%
COC1(C(=O)N2CCC3(CCC(c4cccs4)(N(C)C)CC3)C2)CC1 (stereo not drawn) | 0.0235 µM | 91.5% | 0.0855 µM | 65%
CN(C)C1(c2ccccc2)CCC2(CCN(CCC3(C#N)CC3)C2)CC1 (stereo not drawn) | 0.00325 µM | 98.5% | 0.0119 µM | 89%
